PubChem BioAssay (Tox21)
Values joined by “and” are separate entries in the source; they are usually repeats but may differ in a detail not shown here. Identical values can stand only once. Only a part is listed here, and it is no random draw. Records with an inconclusive call do not appear. Active and inactive are the calls of the source. Unless noted, the call rests on the fitted dose curve; in most records, active means well fitted curve in the direction sought with a large enough effect in the repeat runs; inconclusive means weak or mixed curves; inactive means no such curve, though single readings can be large; an effect the other way counts as inactive or inconclusive.

Protein sequences, listed by entry. Tags and fused reporters are not part of them.
UniProt P11473, whole entry: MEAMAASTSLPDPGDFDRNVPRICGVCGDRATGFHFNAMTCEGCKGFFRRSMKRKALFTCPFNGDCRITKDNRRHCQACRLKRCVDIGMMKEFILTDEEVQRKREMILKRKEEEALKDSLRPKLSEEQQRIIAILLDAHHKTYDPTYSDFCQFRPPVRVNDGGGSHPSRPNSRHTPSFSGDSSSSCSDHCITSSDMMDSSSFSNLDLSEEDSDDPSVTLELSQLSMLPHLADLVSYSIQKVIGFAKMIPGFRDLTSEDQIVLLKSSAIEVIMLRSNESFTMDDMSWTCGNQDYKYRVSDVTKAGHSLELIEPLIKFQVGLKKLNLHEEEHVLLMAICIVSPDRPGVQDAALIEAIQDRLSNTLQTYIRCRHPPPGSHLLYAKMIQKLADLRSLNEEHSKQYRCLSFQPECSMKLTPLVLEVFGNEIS

What was measured:
[1] = qHTS assay to identify small molecule antagonists of the farnesoid-X-receptor (FXR) signaling pathway - cell viability counter screen (AID 743221; active means well fitted cell-killing curve with a large enough effect in the repeat runs, not every such curve was filed as active; further: on the % scale 0 is the no-effect control and ±100 the full control effect; nearly all actives have a fitted effect of over 50% in size); details: FXR-bla HEK293T viability, CellTiter-Glo luminescence, 16 h
How it was run: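 Multiplexed counter screen: viability of FXR-bla HEK 293T cells under agonist stimulation by chenodeoxycholic acid (50 uM, final) and test compound for 16 h at 37 C, measured by CellTiter-Glo luminescence in the reporter wells.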

[2] = molecular target: Vitamin D3 receptor (Homo sapiens) (UniProt P11473); assay: qHTS assay to identify small molecule antagonists of the vitamin D receptor (VDR) signaling pathway (AID 743223; active means well fitted inhibition curve with a large enough effect in the signal ratio in the repeat runs, not every such curve was filed as active; the % refers to the signal ratio; further: on the % scale 0 is the no-effect control and ±100 the full control effect); details: VDR-UAS-bla HEK293T, beta-lactamase FRET ratio, 16 h
How it was run: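 Cells carrying a VDR-driven beta-lactamase reporter (VDR-bla) were co-treated with compound and 3 nM final 1alpha,25-dihydroxyvitamin D3 for 16 h at 37C; reporter activity was measured as FRET substrate fluorescence after 2 h at room temperature.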

[3] = qHTS assay to identify small molecule antagonists of the vitamin D receptor (VDR) signaling pathway - cell viability counter screen (AID 743225); details: VDR-bla HEK293T viability, CellTiter-Glo luminescence, 16 h; further: on the % scale 0 is the no-effect control and ±100 the full control effect; nearly all actives have a fitted effect of over 50% in size
How it was run: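 HEK293T VDR-bla; cpd + 1a,25-(OH)2D3 3 nM final, 16 h 37C/5% CO2; B/G FRET substrate 2 h RT; then CellTiter-Glo 30 min RT, luminescence.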

[4] = qHTS assay to identify small molecule agonists of the NFkB signaling pathway - cell viability counter screen (AID 1159515; calls by dose curve; further: on the % scale 0 is the no-effect control and ±100 the full control effect; nearly all actives have a fitted effect of over 55% in size); details: NFkB-bla ME-180 viability, CellTiter-Glo luminescence, 5 h
How it was run: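 Luminescence from CellTiter-Glo (30 min, room temperature) gives viability, measured in the same wells as the beta-lactamase reporter read. Cells were NFkB-bla ME-180, 2,000 per well, treated 5 hr with compounds.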

[5] = qHTS assay to identify small molecule agonists of the endoplasmic reticulum stress response signaling pathway (AID 1159516; active means well fitted activation curve with a large enough effect in the signal ratio in the repeat runs, not every such curve was filed as active; the % refers to the signal ratio; further: on the % scale 0 is the no-effect control and ±100 the full control effect); details: ESRE-bla HeLa, ER stress beta-lactamase reporter, 5 h
How it was run: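 Read-out is beta-lactamase cleavage of a FRET substrate (405 nm excitation; 460 and 530 nm emissions) in ESRE-bla HeLa cells after a 5 hr compound exposure at 37 C. Substrate incubation ran 2 hr at room temperature.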

[6] = qHTS assay to identify small molecule antagonists of the retinoid-related orphan receptor gamma (ROR-gamma) signaling pathway - cell viability counter screen (AID 1159520); details: Tet-on RORgamma CHO cells viability, ATP luminescence, 16 h; further: on the % scale 0 is the no-effect control and ±100 the full control effect; nearly all actives have a fitted effect of over 50% in size
How it was run: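 Tet-on ROR gamma CHO cells were given compounds for 2 hr, then doxycycline hyclate at 1 uM final, and incubated 16 hr at 37 C. Viability was measured as ATP content by CellTiter-Glo luminescence.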

[7] = molecular target: Nuclear receptor ROR-gamma (Homo sapiens) (UniProt P51449); assay: qHTS assay to identify small molecule antagonists of the retinoid-related orphan receptor gamma (ROR-gamma) signaling pathway (AID 1159521;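 further: CHO cells with doxycycline inducible ROR-gamma driving an RORE luciferase reporter; top concentration of the series differs between compounds; on the % scale 0 is the no-effect control and ±100 the full control effect; nearly all actives have a fitted effect of over 50% in size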); details: Tet-on RORgamma CHO cells, RORE-luciferase, 16 h
[8] = qHTS assay to identify small molecule agonists of the AP-1 signaling pathway - cell viability counter screen (AID 1159525; calls by dose curve; further: nearly all actives have a fitted effect of over 55% in size); details: ME-180 AP-1-bla cells viability, ATP luminescence, 5 h
How it was run: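 AP-1-bla ME-180 cells in Opti-MEM with 0.5% dialyzed FBS, compound exposure 5 h at 37 C in 15-point titration. Viability read in the same wells as ATP content by CellTiter-Glo luminescence, normalised to tetra-n-octylammonium bromide and DMSO controls.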

[9] = qHTS assay to identify small molecule agonists of the AP-1 signaling pathway (AID 1159526; calls by dose curve; further: on the % scale 0 is the no-effect control and ±100 the full control effect); details: ME-180 (cervical carcinoma) AP-1-bla reporter, beta-lactamase FRET ratio, 5 h
[10] = qHTS assay to identify small molecule agonists of the RXR signaling pathway - cell viability counter screen (AID 1159529); details: RXR-alpha-bla HEK293T viability, CellTiter-Glo, 16 h
How it was run: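 Steps: seed RXR-alpha-UAS-bla HEK 293T cells in assay medium containing 2% charcoal-stripped FBS; incubate 5 hr; add compounds in DMSO; incubate 16 hr at 37 C; after the bla read, add CellTiter-Glo and read luminescence at 30 min.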

[11] = qHTS assay to identify small molecule antagonists of the retinoid acid receptor (RAR) signaling pathway - cell viability counter screen (AID 1159551); details: C3RL4 cells viability, ATP luminescence (CellTiter-Glo), 6 h; further: on the % scale 0 is the no-effect control and ±100 the full control effect; nearly all actives have a fitted effect of over 35% in size
How it was run: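 Luminescent ATP quantitation (CellTiter-Glo) gave cell viability in C3RL4 cells exposed to test chemicals for 6 h at 37 C alongside 1 uM final retinol.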

[12] = qHTS assay to identify small molecule antagonists of the retinoic acid receptor (RAR) signaling pathway (AID 1159552); details: C3RL4 RARE luciferase reporter, retinol-stimulated, 6 h
How it was run: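 Retinol at 1 uM final stimulated RARE-luciferase expression in C3RL4 cells exposed to test compounds for 6 hr at 37 C. Reduced luminescence, read 30 min after detection reagent, indicated pathway antagonism.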

[13] = qHTS assay to identify small molecule agonists of the retinoic acid receptor (RAR) signaling pathway (AID 1159553); details: C3RL4 RARE luciferase reporter, agonist, 6 h; further: on the % scale 0 is the no-effect control and ±100 the full control effect
How it was run: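 Luminescence from a RARE-driven luciferase reporter in C3RL4 cells served as the read-out, measured after 30 min with detection reagent at room temperature. Compounds in DMSO were applied for 6 hr at 37 C following overnight seeding.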

[14] = qHTS assay to identify small molecule agonists of the endoplasmic reticulum stress response signaling pathway - cell viability counter screen (AID 1159517; calls by dose curve); details: ESRE-bla HeLa viability, CellTiter-Glo luminescence, 5 h
How it was run: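 Counter-screen wells were identical to the reporter wells. Cells were plated at 1,500 per well and dosed for 5 hr, then read for luminescence 30 min after CellTiter-Glo addition.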

[15] = at 92.4 µM (top of the series) unless noted
[16] = at 76.8 µM (top of the series) unless noted

OCCSCCO
inactive: activity change, negative = cytotoxicity ([1]; at 62.6 µM (top of the series)) 4.14% | activity change, negative = cytotoxicity ([1]; at 81.1 µM (top of the series)) 4.81% | activity change, negative = inhibition ([2]; at 61 µM (top of the series)) -0.727% | activity change, negative = inhibition ([2]; at 78.8 µM (top of the series)) 19.4% | viability change, negative = cytotoxic ([3]; at 61 µM (top of the series)) 7.47% | viability change, negative = cytotoxic ([3]; at 78.8 µM (top of the series)) -2.23% | activity, negative = cytotoxic ([4]; at 61 µM (top of the series)) -16.9% | activation ([5]; at 61 µM (top of the series)) 0.695% | activation ([5]; at 78.8 µM (top of the series)) -0.643% | activity, negative = cytotoxicity ([6]; at 42.5 µM (top of the series)) 6.21% | activity, negative = cytotoxicity ([6]; at 92.4 µM (top of the series)) 3.87% | activity change, negative = inhibition ([7]; at 42.5 µM (top of the series)) 4.17% | activity change, negative = inhibition ([7]; at 92.4 µM (top of the series)) -21.9% | viability change, negative = cytotoxic ([8]; at 35.3 µM (top of the series)) 0.149% | viability change, negative = cytotoxic ([8]; at 76.8 µM (top of the series)) 4.58% | activation ([9]; at 35.3 µM (top of the series)) -2.33% | activation ([9]; at 76.8 µM (top of the series)) 13.4% | activity change, negative = cytotoxicity ([10]; at 35.3 µM (top of the series)) -0.844% | activity change, negative = cytotoxicity ([10]; at 76.8 µM (top of the series)) -8.04% | activity change, negative = cytotoxicity ([11]; at 42.5 µM (top of the series)) 5.46% | activity change, negative = cytotoxicity ([11]; at 92.4 µM (top of the series)) -0.936% | activity, negative = inhibition ([12]; at 42.5 µM (top of the series)) -0.08% | activity, negative = inhibition ([12]; at 92.4 µM (top of the series)) 110% | activation ([13]; at 73.3 µM (top of the series)) 2.03% | activation ([13]; at 94.8 µM (top of the series)) 14.8%

N=C(N)N[N+](=O)[O-]
inactive: activity change, negative = cytotoxicity ([1]; at 81.1 µM (top of the series)) 9.62% | activity change, negative = inhibition ([2]; at 78.8 µM (top of the series)) 5.85% | viability change, negative = cytotoxic ([3]; at 78.8 µM (top of the series)) 14% | activity, negative = cytotoxic ([4]; at 78.8 µM (top of the series)) -3.6% | activation ([5]; at 78.8 µM (top of the series)) -2.35% | activity change, negative = cytotoxicity ([14]; at 78.8 µM (top of the series)) 15.6% | activity, negative = cytotoxicity [6, 15] 0.479% | activity change, negative = inhibition ([7]; at 92.4 µM (top of the series)) -20.9% | viability change, negative = cytotoxic [8, 16] -5.23% | activation ([9]; at 76.8 µM (top of the series)) -0.686% | activity change, negative = cytotoxicity ([10]; at 76.8 µM (top of the series)) 4.01% | activity change, negative = cytotoxicity [11, 15] 0.837% | activity, negative = inhibition ([12]; at 92.4 µM (top of the series)) 45.4% | activation ([13]; at 94.8 µM (top of the series)) -0.426%

Cc1ccc([N+](=O)[O-])cc1[N+](=O)[O-]
inactive: activity change, negative = cytotoxicity ([1]; at 62.6 µM (top of the series)) 2.84% and -2.44% | activity change, negative = inhibition ([2]; at 61 µM (top of the series)) -11.6% and 4.73% | viability change, negative = cytotoxic ([3]; at 61 µM (top of the series)) 19.8% and -8.07% | activity, negative = cytotoxic ([4]; at 61 µM (top of the series)) 5.9% and 11% | activation ([5]; at 61 µM (top of the series)) -7.29% and -2.1% | activity change, negative = cytotoxicity ([14]; at 61 µM (top of the series)) -9.96% and -21.3% | activity, negative = cytotoxicity [6, 15] 0.619% | activity change, negative = inhibition ([7]; at 92.4 µM (top of the series)) -17.4% and 1.88% | viability change, negative = cytotoxic [8, 16] 4.93% and 16.2% | activation ([9]; at 76.8 µM (top of the series)) -2.54% and -5.26% | activity change, negative = cytotoxicity ([10]; at 76.8 µM (top of the series)) -2.52% and 4.34% | activity change, negative = cytotoxicity [11, 15] -1.2% and 3.42% | activity, negative = inhibition ([12]; at 92.4 µM (top of the series)) 0.562% and -13% | activation ([13]; at 73.3 µM (top of the series)) -1.63% and -0.0921%

COc1ccc([N+](=O)[O-])cc1[N+](=O)[O-]
inactive: activity change, negative = cytotoxicity ([1]; at 62.6 µM (top of the series)) -15.8% | activity change, negative = inhibition ([2]; at 61 µM (top of the series)) 2.16% | viability change, negative = cytotoxic ([3]; at 61 µM (top of the series)) 11.9% | activity, negative = cytotoxic ([4]; at 61 µM (top of the series)) 1.16% | activation ([5]; at 61 µM (top of the series)) -0.0138% | activity change, negative = cytotoxicity ([14]; at 61 µM (top of the series)) 5.97% | activity, negative = cytotoxicity [6, 15] 0.146% | activity change, negative = inhibition ([7]; at 92.4 µM (top of the series)) -1.21% | viability change, negative = cytotoxic [8, 16] 1.11% | activation ([9]; at 76.8 µM (top of the series)) -3.24% | activity change, negative = cytotoxicity ([10]; at 76.8 µM (top of the series)) -5.05% | activity change, negative = cytotoxicity [11, 15] 3.96% | activity, negative = inhibition ([12]; at 92.4 µM (top of the series)) -6.53% | activation ([13]; at 73.3 µM (top of the series)) -0.114%

CCOP(=O)(CC)Oc1ccc([N+](=O)[O-])cc1 (stereo not given)
inactive: activity change, negative = cytotoxicity ([1]; at 62.6 µM (top of the series)) -0.754% | activity change, negative = inhibition ([2]; at 61 µM (top of the series)) -25.7% | viability change, negative = cytotoxic ([3]; at 61 µM (top of the series)) 13.3% | activity, negative = cytotoxic ([4]; at 61 µM (top of the series)) 3.88% | activity change, negative = cytotoxicity ([14]; at 61 µM (top of the series)) -3.16% | activity, negative = cytotoxicity [6, 15] -4.09% [at 42.5 µM] | activity change, negative = inhibition ([7]; at 42.5 µM (top of the series)) -0.858% | viability change, negative = cytotoxic [8, 16] 1.97% [at 35.3 µM] | activation ([9]; at 35.3 µM (top of the series)) -3.53% | activity change, negative = cytotoxicity ([10]; at 35.3 µM (top of the series)) -2.32% | activity change, negative = cytotoxicity [11, 15] 0.0953% [at 42.5 µM] | activity, negative = inhibition ([12]; at 42.5 µM (top of the series)) -1.04% | activation ([13]; at 73.3 µM (top of the series)) -1.26%
